# In US6001852A, “Clioquinol for the treatment of Alzheimer's disease” (priority 1996, dated 1999):
# Assays:
# [1] = system: Aβ; test: Solubilization of Aβ from Alzheimer's disease brain homogenates (Western blot, mAb W02); assay type: biochemical, human; conditions: % of final PBS/clioquinol extract (100%=800 nM clioquinol)
# [2] = system: zinc precipitated Aβ; test: Washing of zinc-aggregated synthetic Aβ on nylon membrane (anti Aβ mAb 6E10, ECL-film); assay type: biochemical; conditions: 2 μM in TBS, 200 μl wash; 10 ng Aβ aggregated with 25 μM ZnCl; 100% for TBS alone
# Description: Samples of 10 ng synthetic Aβ were placed in microtitre wells and caused to aggregate by the addition of 25 μM ZnCl. The aggregates were then transferred to a 0.2 μm nylon membrane by filtration. […] The membrane was fixed, probed with the anti Aβ monoclonal antibody 6E10 and developed for exposure to ECL-film. The transmittance of the ECL-film was measured and the relative signal strength calculated based on 100% for TBS alone.
structure (smiles),measurement,setting,value
"Oc1c(I)cc(Cl)c2cccnc12 [clioquinol, 5-chloro-7-iodo-8 hydroxyquinoline]",Optimal concentration for solubilization of Aβ,[1],10%
same,Relative signal strength (Aβ remaining on membrane),[2],49%
